Earlier results as cited in article PMC4567495.

Biological target: cardiac troponin I 38-57 (Homo sapiens) (UniProt P19429)
Assay: SPR and ELISA

- Kd: 3 nM
Substance: cardiac troponin C (from UniProt P63316)
